AlphaSeq binding of Ab-14 light chain variants to a spike HR2 peptide

Reference: Li et al. 2023, doi:10.1038/s41467-023-39022-2. File: FLAb, binding data.

The target is the same throughout: PDVDLGDISGINAS, from the HR2 region of SARS-CoV-2 spike.

Each scFv is VH, a (GGGGS)3 linker, VL, as in the parent Ab-14, and differs from it in the CDRs of the light chain only.
VH: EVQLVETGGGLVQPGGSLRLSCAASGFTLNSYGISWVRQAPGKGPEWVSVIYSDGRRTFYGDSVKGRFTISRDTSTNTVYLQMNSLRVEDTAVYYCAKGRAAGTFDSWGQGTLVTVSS
VL: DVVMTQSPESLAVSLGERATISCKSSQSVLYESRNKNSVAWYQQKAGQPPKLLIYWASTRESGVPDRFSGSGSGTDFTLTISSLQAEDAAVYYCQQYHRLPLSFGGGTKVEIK

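This is the validation round: designs drawn from the data on random variants, tested in the same kind of assay. Several design methods are mixed in this list. The assay is AlphaSeq: two haploid yeast populations carry antibody and antigen on their surface. Pairs that bind mate more often; barcode pairs of the diploids are counted by sequencing. Each replicate has its own calibration line, from reference interactions of the BCL2 family. Each pool was mated in six replicate cultures.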

Each variant is given by its three light chain CDRs, as the data file delimits them; those of the parent are KSSQSVLYESRNKNSVA, WASTRES, QQYHRLPLS. Values are apparent Kd, the geometric mean of the replicates that gave a signal; lower means stronger binding. "not detected" marks a missing value. The strain was present, yet no cells mated with the target were sequenced in any replicate, which points to weak or no binding. A sequence measured in both rounds can read differently, since the two assays cover different ranges. The authors' rule: three or more of the six replicates give a measured affinity, fewer mean a poor binder. Empty control strains, which show no peptide, gave a signal in 4% of pairings with all light chain designs; the median was 430 nM and 95% of these signals were weaker than 38 nM. No background was subtracted.

CDR-L1,CDR-L2,CDR-L3,apparent Kd,seen in
KSSQSWLYESRNKNSVA,HASQREQ,QQYHRLPLS,1.2 nM,6/6
KLVQFMNRGTHHTSNIA,DAQQRLD,QQYARLPLA,1.0 nM,6/6
KVSGSVLYESRNKNSVA,EASTRES,QQYHRLPLS,1.1 nM,6/6
KFSQMVLTGAYVSNSVA,QMSTRVN,QQYHRLPLM,5.3 nM,6/6
SLEPFEYQIMKDLNNIA,NTQVRAN,QQYMRLPIM,28 nM,6/6
SFSQSVLYESRTKNSVA,NGSTRES,QQYHRLPLS,950 pM,6/6
NVGQMMDGESRNKNSVA,HQSTRED,QHYHRLPLS,5.1 nM,6/6
DSSQSVLYESRNKNSVA,WASTREQ,QQYHRLMLS,210 nM,4/6
KLQQSNLYESRNKNSVA,NASTRMS,QQYHRLPLS,620 pM,6/6
KLSQSVLYESRNKNSVA,NASTREC,QQYHRLPLS,390 pM,6/6
KVSQSNLYESRNKNSVA,NASQRLS,QQYHRLPLS,1.0 nM,6/6
KSSGSVLYESRNKNSGA,WASTRIS,QQYCRLPLS,78 nM,5/6
MMSNVTGLGQRTRNNVA,QTSTREP,QQYDRLPLI,13 nM,6/6
TIGQTLMQGIRNRSNVA,EVSERLN,QQYDRLPLI,17 nM,5/6
MISQIYNMGSFAINSVA,QASLRND,QQYDRLPLM,35 nM,6/6
KLSQSVLYESRNWNSVA,DASTRES,QQYHRLPLS,2.0 nM,6/6
KLSQSHLYESRNWNAVA,EASQRPS,QQYHRLPLS,1.2 nM,6/6
QLQWYNTYATASASNIA,DGAQRLN,QQYMRLPLM,2.0 nM,6/6
KLSMVTGHMSLAKNNVA,EMETREK,QQYNRLPLS,2.2 nM,6/6
KSSQSVLYESRNANSVA,WASTREQ,QQCARLPLS,not detected,0/6
KLEQSVLYESRNKNSVA,QASTRES,QQYHRLPLS,3.9 nM,6/6
KLSQSVLYEDRNKNSVA,NASTREQ,QQYHRLPLS,860 pM,6/6
KLSMSVLYEDRHKNSVA,NASKRFS,QQYHRLPLS,15 nM,6/6
ALSQSMDMTSRNKNSVA,DLTTRVN,QQYHRLPLS,1.3 nM,6/6
KLSQSDLYESRNKNNVA,NASQRES,QQYHRLPLS,600 pM,6/6
KVYQSYLYESRNKNSVA,QASTRES,QQYHRLPLS,1.1 nM,6/6
KLSQLELYESRNKNSVA,NASTRES,QQYHRLPLS,310 pM,6/6
KLFGGIPEQERIDYSIA,YGTLSEV,QQYDRLPLS,not detected,0/6
IISQSVLMESRNKNSVA,DASTRES,QQYHRLPLS,1.1 nM,6/6
KSNTSVLYESRNKNSVA,WKSTRWS,QQYHRLPLS,1.2 µM,1/6
RLQIHDNGYIGMRNNVA,DGGMVRM,QQYARLPLM,1.6 nM,6/6
KVSQSVLYESRNKNSVA,EASTRCS,QQYHRLPLS,14 nM,6/6
KFQQSQLYESRNKNSVA,NASCRMS,QQYHRLPLS,1.9 nM,6/6
KSSQSVLYESRNTNSVA,KASTRES,QQYHRLPLS,180 nM,6/6
MISQLYNMGQFAINSVA,QATERNE,QQYDRLPLI,37 nM,6/6
KLQQSTLYESRNKNSVA,DASTRLS,QQYHRLPLS,930 pM,6/6

Second part, the sequence after the result:

apparent Kd,seen in,CDR-L1,CDR-L2,CDR-L3
580 pM,6/6,ALSQSMDMTSRNKNSVA,DLSTRAN,QQYHRLPLS
500 pM,6/6,KLVMSELYESRNKNSVA,GASQRES,QQYHRLPLS
620 pM,6/6,KLSLSVLFESRNKNSVA,NASTRES,QQYHRLPLS
not detected,0/6,HLLYAFNTGSLYDNNVA,EGETVLD,QQYFRLPIT
22 nM,6/6,KITSHEREGTADNSAMA,NADVSHD,QQYSRLPLF
6.6 nM,6/6,QLATEVHDNAKLRHSIA,ENELRAM,QQYFMLPLS
8.7 nM,6/6,KILGEIENQSYNRNSVA,HSTTRED,QSYHRLPLS
34 nM,6/6,TIDLWTSYGNGENKAIA,DVSIKDY,QQYARLPLL
1.4 nM,6/6,KQSQSQLYEDGNSNSVA,NASVRES,QQYHRLPLS
890 pM,6/6,NLQNIGSELSVWKRNIA,DANIRES,QQYFRLPLL
730 pM,6/6,KLQQSWLYESRNKNSVA,NASTRLD,QQYHRLPLS
610 pM,6/6,KLQQSEGYESRNQNAVA,AASQREE,QQYHRLPLS
390 pM,6/6,KLSQSMLYESRNKNSVA,EASTRLS,QQYHRLPLS
33 nM,5/6,QLLMATMSGQYNRNSVA,HAQTRND,QSYHRLPLS
820 pM,6/6,VSSQSWLYESRNKNSVA,GASTRES,QQYHRLPLS
16 nM,6/6,QIGFLLNFESKIVNNVA,QMETRVE,QQYDRLPLS
7.2 nM,6/6,KISQSVLTEPENKNSVA,WASTRES,QQYHRLPLR
2.9 nM,6/6,KWMQSDDQESRNHNSVA,HASTRCQ,QQYHRLPLS
1.0 nM,6/6,KLSQSVGYQSRNKNSVA,HASTRED,QQYHRLPLS
63 nM,6/6,KLQQSVEYESRNKNSVA,EASTRES,QQYHRLPLS
1.6 nM,6/6,KILQSVTYQSPNKNSVA,HASTRES,QQYHRLPLS
3.5 nM,6/6,HSSPSKLYESRNKNSVA,NASTRES,QQYHRLPLS
53 nM,6/6,KSSISYLYESRNINSVA,EASTRES,QQYHRLPLS
16 nM,5/6,KSSPSVLYESQNKNSVA,WASTRES,QQYHRLPLS
15 nM,6/6,KSSQSVLYESRNKNSVA,NGSTRES,QQYHGLPLS
910 pM,6/6,KLSQSVWYESRNKNSVA,GASTRES,QQYHRLPLS
3.8 nM,6/6,KQSQSVLMGERNSNSVA,NASYRLS,QQYHRLPLS
12 nM,6/6,IISQSMLYETATHNSIA,QTETREE,QQYHHLPLI
14 nM,5/6,KLSMSVLYESVFKNSVA,WASMRES,QQYHRLPLS
1.2 nM,6/6,KSSISYLYESRNTNSVA,EASTRES,QQYHRLPLS
7.3 nM,6/6,KSSISYLYESRCKNSVA,EASTREQ,QQYHRLPLS
12 nM,6/6,KQSPQQLYSSRNKNQVA,DASTRES,QQYHRLPLS
1.2 nM,6/6,HMYQSGLYESRNKNSVA,SASMRES,QQYHRLPLS
2.9 nM,6/6,KLSQSWLYESRNKNSVA,QASTRES,QQYHRLPLS
550 pM,6/6,KFSWSVLYESRNKNSVA,DASTRES,QQYHRLPLS
14 nM,6/6,KLQWSWLMQSRNKNSVA,HASMRES,QQYHRLPLS

4 of these entries, quoted again:

{"CDR-L1": "KLEQSVLYESRNKNSVA", "CDR-L2": "QASTRES", "CDR-L3": "QQYHRLPLS", "apparent Kd": "3.9 nM", "seen in": "6/6"}
{"CDR-L1": "KLSQSMLYESRNKNSVA", "CDR-L2": "EASTRLS", "CDR-L3": "QQYHRLPLS", "apparent Kd": "390 pM", "seen in": "6/6"}
{"CDR-L1": "KSSQSVLYESRNANSVA", "CDR-L2": "WASTREQ", "CDR-L3": "QQCARLPLS", "apparent Kd": "not detected", "seen in": "0/6"}
{"CDR-L1": "KLQQSVEYESRNKNSVA", "CDR-L2": "EASTRES", "CDR-L3": "QQYHRLPLS", "apparent Kd": "63 nM", "seen in": "6/6"}